The text below walks through data of patent US9040660B2, “Long-acting gastrin derivatives” (priority 2010, dated 2015).

The target of this assay is T1, CCK2 receptor (gastrin receptor) (Homo sapiens, UniProt P32239).
T1 construct: expressed in transfected cells; host or cells: NIH 3T3/CCK2R cells (mouse fibroblast line overexpressing CCK2R, kept under G418 selection)
T1 sequence (P32239 1-447): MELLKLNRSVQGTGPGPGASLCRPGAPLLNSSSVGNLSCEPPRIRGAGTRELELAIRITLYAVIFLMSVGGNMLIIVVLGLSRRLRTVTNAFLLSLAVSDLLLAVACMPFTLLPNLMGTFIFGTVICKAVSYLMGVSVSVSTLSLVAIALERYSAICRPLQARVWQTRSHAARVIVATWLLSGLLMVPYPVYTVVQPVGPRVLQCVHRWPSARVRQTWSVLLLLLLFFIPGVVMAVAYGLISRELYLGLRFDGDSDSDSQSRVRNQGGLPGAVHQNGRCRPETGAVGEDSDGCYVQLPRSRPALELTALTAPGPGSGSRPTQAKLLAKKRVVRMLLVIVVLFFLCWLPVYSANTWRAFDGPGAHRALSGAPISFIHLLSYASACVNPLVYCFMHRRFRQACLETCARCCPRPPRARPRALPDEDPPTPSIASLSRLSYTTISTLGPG
It is filed as cell-based. The note with it: [Leu15] Gastrin-17 = 100, NIH 3T3/CCK2R cells, calcium mobilization. On the procedure: Assay (I): In Vitro Receptor Potency In vitro receptor potency was measured using a CCK2 receptor mediated calcium mobilization assay. The CCK2 receptor (gastrin receptor) signals via the heterotrimeric G-protein, Gq, to activate phospholipase C(PLC). This leads to generation of inositol-1,4,5-trisphosphate (IP3) that releases calcium from intracellular stores. The primary rise in cytosolic calcium concentration is followed by activation of calcium dependent calcium channels in the plasma membrane allowing extracellular calcium to enter the cell. The rise in calcium concentration is transient, but it can be measured in situ by loading the cells with a calcium dependent fluorescent probe and monitored by the use of 96- or 384-well fluorescence plate readers. […] Beside the baseline fluorescence measurement, a second fluorescence measurement was performed after 30 seconds with both measurements using the […] […] Emin was calculated. The concentration-response relationship was calculated using a four-parameter logistic model using non linear regression analysis (Prism 5.02, GraphPad Software). In vitro receptor potency of gastrin compounds was measured using Assay (I).
On the technique in general: Calcium flux is commonly read through the fluorescence of an indicator in the cells.

Like-named read-outs stand apart in the source and are kept apart here.

For the substance [Leu15] Gastrin-17 [reference compound], the “Relative Receptor Potency” value is 100 (Table 2: N-terminal acylation/truncation series) and 100 (Table 3: acylation position (Lys scan) series).
